From patent US12377152B2, “Compounds for degrading alpha-synuclein aggregates and uses thereof” (APRINOIA THERAPEUTICS LIMITED, priority 2019, dated 2025)

Target: α-synuclein aggregates (Homo sapiens (Human), UniProt P37840)
Assay: ReNcell VM α-synuclein aggregation assay
Settings: read-out: Activity (DC50, concentration at which 50% of α-synuclein aggregates has been degraded); ReNcell VM cells
Experimental: The ReNcell VM α-synuclein aggregation assay was conducted at Charles River Laboratories (CRL). ReNcell VM is an immortalized human neural progenitor cell line derived from the ventral mesencephalon region of the brain. ReNcell VM cells were selected as in vitro cellular model for the α-synuclein aggregation assay, based on their growth features, differentiation potential into terminally differentiated neurons and amenability to adenoviral transduction. Aggregated human wild type α-synuclein was overexpressed through adenoviral delivery. Aggregated α-synuclein was detected with the aggregate-selective anti-α-synuclein antibody MJFR14 using immunocytochemistry; total α-synuclein levels were detected with Syn205 (α/β-synuclein-specific antibody).
The ReNcell VM α-synuclein aggregation assay was applied for compound screening to identify compounds capable of degrading α-synuclein aggregates. […] Immunoreactivity toward aggregated (MJFR14) and total α-synuclein (Syn205) was quantified using high content-based segmentation of immunoactive areas in immunocytochemical images (performed with the IN Cell 2200 (GE Healthcare)), followed by quantification of immunofluorescent intensity (performed by CRL's developed algorithm using IN Cell Developer Toolbox software).
Percentage effect (PE): Inhibition in comparison to BLANK (0.1% DMSO).
PE=100−(signal of compound/average signal BLANK)×100 […]

`CN(C)c1ccc(-c2ccc(-c3nc4ccc(NCCNC(=O)COc5ccc6c(c5)CN(C5CCC(=O)NC5=O)C6=O)cc4s3)c(C(F)(F)F)c2)cn1` (stereo not shown) gave a DC50 of 10 to 900 nM.
